Laboratory results from PubChem BioAssay AID623 (Vanderbilt High Throughput Screening Facility, 2007).
The entries are a selection whose mix differs from that of the whole data set. Activity calls are given as the source filed them.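 The calls were made as follows: active = NADPH fluorescence slope more negative than the mean of all samples by about 3 SD, 99.7% confidence; inactive = the rest.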

Amino acid sequences for entries named in this document (tags omitted).
UniProt P62483, whole entry: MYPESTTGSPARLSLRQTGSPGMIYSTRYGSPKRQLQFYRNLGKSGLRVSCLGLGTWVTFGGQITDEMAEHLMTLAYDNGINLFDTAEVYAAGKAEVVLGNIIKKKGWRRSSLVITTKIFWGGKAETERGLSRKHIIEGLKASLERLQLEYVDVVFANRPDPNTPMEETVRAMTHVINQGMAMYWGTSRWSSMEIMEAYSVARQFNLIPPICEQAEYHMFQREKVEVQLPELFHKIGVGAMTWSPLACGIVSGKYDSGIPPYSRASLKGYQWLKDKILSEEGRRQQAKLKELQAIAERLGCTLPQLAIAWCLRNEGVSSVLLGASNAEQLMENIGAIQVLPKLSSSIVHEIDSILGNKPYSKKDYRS

These molecules were tested against Voltage-gated potassium channel subunit beta-2 (Rattus norvegicus) (UniProt P62483) (assay: enhancers of rat Kvbeta2 NADPH turnover – biochemical, NADPH fluorescence, primary screen (AID 623;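 also: fluorescence intensity change per second fitted from 20 to 320 s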)). Details: Recombinant KvBeta, NADPH fluorescence decrease slope, 10 min; at 10 µM; hits give low values.

**Q.** With Fc1ccccc1NC1CCN(Cc2ccccc2)CC1 as the molecule, how does the NADPH fluorescence slope read?
**A.** inactive: -4.7e-05
